{"sequences": {"note": "The chains behind the UniProt entries cited, without tags or fusion partners.", "UniProt P19327, whole entry": "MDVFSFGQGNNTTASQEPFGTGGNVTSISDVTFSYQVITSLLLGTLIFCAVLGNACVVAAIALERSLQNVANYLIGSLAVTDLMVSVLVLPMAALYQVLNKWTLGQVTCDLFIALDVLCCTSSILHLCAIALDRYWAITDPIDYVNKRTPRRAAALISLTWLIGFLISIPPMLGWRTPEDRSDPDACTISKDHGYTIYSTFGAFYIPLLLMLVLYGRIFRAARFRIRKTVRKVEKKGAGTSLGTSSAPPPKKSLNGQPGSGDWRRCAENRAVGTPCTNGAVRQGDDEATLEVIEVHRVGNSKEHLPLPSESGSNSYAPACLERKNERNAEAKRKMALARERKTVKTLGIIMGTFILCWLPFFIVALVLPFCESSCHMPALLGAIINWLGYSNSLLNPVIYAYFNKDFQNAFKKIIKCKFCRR"}, "source": "ChEMBL document CHEMBL1127604", "about": "(J Med Chem, 1994)", "molecular_target": "5-hydroxytryptamine receptor 1A (Rattus norvegicus, UniProt P19327)", "experiment": "Inhibition of forskolin stimulated adenylate cyclase at 5-hydroxytryptamine 1A receptor", "type": "functional", "data": [{"compound": "NCCc1c[nH]c2ccc(O)cc12", "note": "[SEROTONIN]", "values": [{"measurement": "EC50", "result": 10, "unit": "nM"}]}]}
